Experimental data: ChEMBL document CHEMBL3875229, “Potent Antifungal Synergy of Phthalazinone and Isoquinolones with Azoles Against Candida albicans” (ACS Med Chem Lett, 2017)

What follows are molecules tested on Candida albicans (assay: Antifungal activity against Candida albicans HLY4123 after 16 hrs in presence of 0.25 ug/ml of fluconazole by ten fold serial dilution method).
Type: functional
For COc1ccc(-n2nc(C(=O)NCC(=O)NCCC3=CCCCC3)c3ccccc3c2=O)c(OC)c1, the Activity was “Dose-dependent effect”.
In the case of COc1cc(Br)ccc1-n1cc(C(=O)NCC(=O)NCCC2=CCCCC2)c2ccc(C#CCCCO)cc2c1=O, the Activity is reported as “Dose-dependent effect”.
With COc1ccc(-n2cc(C(=O)NCC(=O)NCCC3=CCCCC3)c3ccccc3c2=O)c(OC)c1 the Activity was “Dose-dependent effect”.
COc1cc(Br)ccc1-n1cc(C(=O)NCCc2ccccc2)c2ccccc2c1=O was tested, and the Activity was “Dose-dependent effect”.
COc1cc(Br)ccc1-n1cc(C(=O)N[C@@H](CCCCNC(=O)OCc2ccccc2Cl)C(=O)NCCC2=CCCCC2)c2ccccc2c1=O was tested, and the Activity was “Dose-dependent effect”.
For COc1cc(Br)ccc1-n1cc(C(=O)NCC(=O)NCCC2=CCCCC2)c2occc2c1=O, the Activity was “Dose-dependent effect”.
With COc1cc(C)ccc1-n1cc(C(=O)NCC(=O)NCCC2=CCCCC2)c2ccccc2c1=O the Activity was “Dose-dependent effect”.
With COc1cc(Br)ccc1-n1cc(C(=O)NCC(=O)NCCC2=CCCCC2)c2ccc(Br)cc2c1=O the Activity was “Dose-dependent effect”.
In the case of COc1cc(Br)ccc1-n1cc(C(=O)NCC(=O)NCCc2ccccc2)c2ccccc2c1=O, the Activity is reported as “Dose-dependent effect”.
For COc1cc(Br)ccc1-n1cc(C(=O)NCC(=O)NCCC2=CCCCC2)c2sccc2c1=O, the Activity was “Dose-dependent effect”.
For COc1cc(Br)ccc1-n1cc(C(=O)NCC(=O)NCCC2=CCCCC2)c2ccccc2c1=O, the Activity was “Dose-dependent effect”.
For COc1cc(C#CCCCO)ccc1-n1cc(C(=O)NCC(=O)NCCC2=CCCCC2)c2ccccc2c1=O, the Activity was “Dose-dependent effect”.
With COc1cc(Br)ccc1-n1nc(C(=O)NCC(=O)NCCC2=CCCCC2)c2ccccc2c1=O the Activity was “Dose-dependent effect”.
